Earlier results, collected in publication PMC9099121, “Population pharmacokinetic and exposure‐response analyses from ALTA‐1L: Model‐based analyses supporting the brigatinib dose in ALK‐positive NSCLC” (Clinical and Translational Science, 2022).

What was measured:
[1] = tested on: crizotinib-resistant ALK+ NSCLC; design: method as in PMID 29748847; conditions: time-independent measure; patients with crizotinib-resistant ALK+ NSCLC; cited from earlier work
[2] = tested on: advanced ALK inhibitor-naive ALK+ NSCLC; design: method as in PMID 32780660; conditions: cited from earlier work

## CCc1cc2c(cc1N1CCC(N3CCOCC3)CC1)C(C)(C)c1[nH]c3cc(C#N)ccc3c1C2=O [alectinib]
[1]
  Exposure (median observed steady-state trough concentrations) as predictor of overall survival: not a significant predictor of overall survival

## C[C@@H](Oc1cc(-c2cnn(C3CCNCC3)c2)cnc1N)c1c(Cl)ccc(F)c1Cl [crizotinib]
[2]; ALTA-1L, patients with any baseline brain metastases
  2-year intracranial PFS rate: 15%
[2]; second ALTA-1L interim analysis, patients with measurable baseline brain metastases
  iORR: 26%
